Ab-14 light chain CDR variants: yeast mating affinities

Values reported by Engelhart et al. 2022, doi:10.1038/s41597-022-01779-4 (FLAb copy).

Binding partner: SARS-CoV-2 spike HR2 peptide, sequence PDVDLGDISGINAS.

Parent: Ab-14, a human scFv built as VH, a 15-residue (Gly4Ser)3 linker, VL. Only the CDRs of the light chain vary.
VH: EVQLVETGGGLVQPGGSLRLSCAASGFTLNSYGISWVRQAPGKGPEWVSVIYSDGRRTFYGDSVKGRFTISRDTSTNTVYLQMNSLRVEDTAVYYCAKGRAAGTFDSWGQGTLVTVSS
VL: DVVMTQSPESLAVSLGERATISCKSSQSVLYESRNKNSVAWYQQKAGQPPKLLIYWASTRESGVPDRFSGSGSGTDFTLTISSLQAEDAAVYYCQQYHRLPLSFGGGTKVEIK

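The starting antibody came from a phage panning campaign against this peptide. AAYL50 was designed without a model: most single CDR substitutions and a random sample of double and triple ones. The scFvs were displayed on barcoded MATa yeast, the peptide on MATalpha yeast. Mating (16 h, 30 °C) was followed by selection of diploids and sequencing of their barcodes. Read counts were normalised to the haploid input and turned into Kd by a linear fit to BCL2-family pairs of known affinity, for each replicate. Mating was done three times.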

Variants are written as CDR1, CDR2 and CDR3 of the light chain (limits as in the source). Parent: KSSQSVLYESRNKNSVA, WASTRES, QQYHRLPLS.
The Kd shown is the geometric mean over detected replicates; a lower Kd is a better binder.
A pair that was not seen in any replicate is written "no signal"; this usually means weak binding, but a binder can also be missed.
Parent in this assay: reference entry 4.4 nM, copy in this library 48 nM.
Empty control strains, which show no peptide, gave a signal in 18% of pairings with library AAYL50; the median was 15 µM and 95% of these signals were weaker than 970 nM. No background was subtracted.

{"CDR-L1": "CCSQSVLYEGRNKNSVA", "CDR-L2": "WASTRES", "CDR-L3": "QQYHRLPLS", "apparent Kd": "140 nM", "replicates with signal": "3 of 3"}
{"CDR-L1": "KSSQPVLYESRNKNSVA", "CDR-L2": "WASTRES", "CDR-L3": "QQYDRRPLS", "apparent Kd": "24 µM", "replicates with signal": "2 of 3"}
{"CDR-L1": "KLQQSVLYESRNKNSVA", "CDR-L2": "WASTRES", "CDR-L3": "QQYHRLPFS", "apparent Kd": "2.3 nM", "replicates with signal": "3 of 3"}
{"CDR-L1": "KSSQPVLYESRNKNSVA", "CDR-L2": "WASTRES", "CDR-L3": "DQYHYLPLS", "apparent Kd": "no signal", "replicates with signal": "0 of 3"}
{"CDR-L1": "KSSHSVLYESRNKNSVA", "CDR-L2": "WASTRES", "CDR-L3": "QQYIRQPLS", "apparent Kd": "50 nM", "replicates with signal": "3 of 3"}
{"CDR-L1": "FSSQSVLYESRNKNSVC", "CDR-L2": "WASTRES", "CDR-L3": "QFYHRLPLS", "apparent Kd": "29 µM", "replicates with signal": "2 of 3"}
{"CDR-L1": "KSSGSVLYESRNVNSVA", "CDR-L2": "WASTRES", "CDR-L3": "QQYHRLPKS", "apparent Kd": "no signal", "replicates with signal": "0 of 3"}
{"CDR-L1": "KSSQSVLYESRNKCSVA", "CDR-L2": "WASTQES", "CDR-L3": "QQYHRLLLS", "apparent Kd": "no signal", "replicates with signal": "0 of 3"}
{"CDR-L1": "KSSQVVLYESRNKNSVL", "CDR-L2": "WASTRES", "CDR-L3": "QIYHRLPLS", "apparent Kd": "no signal", "replicates with signal": "0 of 3"}
{"CDR-L1": "KSSQSVLYESRNKNWVA", "CDR-L2": "WASDRES", "CDR-L3": "QQYHRLYLS", "apparent Kd": "7.7 µM", "replicates with signal": "3 of 3"}
{"CDR-L1": "KSSQSVLYESPNKNSVA", "CDR-L2": "WSSTRES", "CDR-L3": "QQYHMLPLS", "apparent Kd": "1.0 µM", "replicates with signal": "3 of 3"}
{"CDR-L1": "KSQQSVLYESRNKNSVA", "CDR-L2": "WYSTRES", "CDR-L3": "QQYCRLPLS", "apparent Kd": "no signal", "replicates with signal": "0 of 3"}
{"CDR-L1": "KSSQSVLYESRSKNSAA", "CDR-L2": "WASTRES", "CDR-L3": "QQYHHLPLS", "apparent Kd": "no signal", "replicates with signal": "0 of 3"}
{"CDR-L1": "HDSQSVLFESRNKNSVA", "CDR-L2": "WASTRES", "CDR-L3": "QQYHRLPLS", "apparent Kd": "3.8 nM", "replicates with signal": "3 of 3"}
{"CDR-L1": "KSSYSVLYESRNKNSVA", "CDR-L2": "WATTRES", "CDR-L3": "QQYHRLPLS", "apparent Kd": "5.1 nM", "replicates with signal": "3 of 3"}
{"CDR-L1": "QSSQSVLYESRNKNIVA", "CDR-L2": "WASTQES", "CDR-L3": "QQYHRLPLS", "apparent Kd": "660 nM", "replicates with signal": "1 of 3"}
{"CDR-L1": "KMSQSVWYESRNKNSVA", "CDR-L2": "WASTRES", "CDR-L3": "HQYHRLPLS", "apparent Kd": "380 µM", "replicates with signal": "1 of 3"}
{"CDR-L1": "KSSQSVLYESRNKNSNA", "CDR-L2": "WAWTRES", "CDR-L3": "QQAHRLPLS", "apparent Kd": "29 µM", "replicates with signal": "2 of 3"}
{"CDR-L1": "KSSQSVKYESRNKNSVK", "CDR-L2": "WASTRKS", "CDR-L3": "QQYHRLPLS", "apparent Kd": "no signal", "replicates with signal": "0 of 3"}
{"CDR-L1": "KSSQSVLYESRNKNMVD", "CDR-L2": "WASTRES", "CDR-L3": "QQYHCLPLS", "apparent Kd": "no signal", "replicates with signal": "0 of 3"}
{"CDR-L1": "KSSQSVLYESRNKNYVG", "CDR-L2": "WGSTRES", "CDR-L3": "QQYHRLPLS", "apparent Kd": "no signal", "replicates with signal": "0 of 3"}

The last 3 entries again:

CDR-L1	CDR-L2	CDR-L3	apparent Kd	replicates with signal
KSSQSVKYESRNKNSVK	WASTRKS	QQYHRLPLS	no signal	0 of 3
KSSQSVLYESRNKNMVD	WASTRES	QQYHCLPLS	no signal	0 of 3
KSSQSVLYESRNKNYVG	WGSTRES	QQYHRLPLS	no signal	0 of 3